Binding of CDR-mutated scFvs to a peptide of the spike HR2 region

Values reported by Engelhart et al. 2022, doi:10.1038/s41597-022-01779-4 (FLAb copy).

The target is the same throughout: PDVDLGDISGINAS, from the HR2 region of SARS-CoV-2 spike.

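Phage display of a naive human antibody library on the peptide gave the parent. Library AAYL49 holds single substitutions and randomly drawn double and triple substitutions in the CDRs. In AlphaSeq, yeast of one mating type display the scFv and yeast of the other type display the target. After mating in shaken culture at 30 °C for 16 h, diploids were selected and their barcode pairs sequenced. Read counts were normalised to the haploid input and turned into Kd by a linear fit to BCL2-family pairs of known affinity, for each replicate. There are three technical replicates.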

Each scFv is VH, three GGGGS repeats, VL, as in the parent Ab-14, and differs from it in the CDRs of the heavy chain only.
VH: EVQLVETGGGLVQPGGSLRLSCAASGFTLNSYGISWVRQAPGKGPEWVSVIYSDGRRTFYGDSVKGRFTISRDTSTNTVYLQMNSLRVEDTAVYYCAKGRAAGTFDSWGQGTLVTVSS
VL: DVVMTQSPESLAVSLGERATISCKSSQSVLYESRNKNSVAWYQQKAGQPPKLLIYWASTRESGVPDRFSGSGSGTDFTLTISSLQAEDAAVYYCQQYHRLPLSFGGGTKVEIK

Substitutions are numbered in sequence along the VH above, starting at 1 (not Kabat). Affinities are written as log10 Kd with Kd in nM; a lower number is a better binder. Averages over replicates are reported, and they cover detected replicates only. An entry "nd" has no value in the source: the pair was not observed among the diploids in that replicate. This suggests poor binding but is not conclusive.

T28C/L29I/S53F: nd, nd, nd (controls 0 of 9).
F27A/F105C/S107L: nd, nd, nd (controls 0 of 9).
F27R/D54C/S107K: nd, nd, nd (controls 0 of 9).
T58N/D62I/V64Q: nd, nd, nd (controls 0 of 9).
I34A/I51R/G61S: nd, nd, nd (controls 0 of 9).
T28D/F59I/G61T: 0.34, 0.56, 0.53 (mean 0.48; controls 2 of 9).
F27H/T58I: nd, nd, nd (controls 0 of 9).
D62T/A102Y/D106V: 3.56, 2.77, 2.95 (mean 3.10; controls 1 of 9).
S53Q/R57A/S63R: nd, nd, nd (controls 0 of 9).
S31W/R56I/R57Q: nd, nd, 3.61 (controls 3 of 9).
G61Y/R100C: nd, 3.93, nd (controls 1 of 9).
I51G/R100Q/A101Q: 3.82, nd, nd (controls 0 of 9).
F27H/S35E/D106G: nd, nd, nd (controls 1 of 9).
Y32V/V50I/S107L: 3.40, nd, 4.63 (mean 4.02; controls 3 of 9).
S31F/I51M/D54F: nd, nd, nd (controls 0 of 9).
I34G/R100M: nd, nd, nd (controls 0 of 9).
G26Q/Y32I/F59E: nd, nd, nd (controls 0 of 9).
G26T/D54I/G103M: nd, nd, nd (controls 1 of 9).
S35F/V64A/G103N: nd, nd, nd (controls 1 of 9).
G26R/V50S/F105I: nd, nd, 3.42 (controls 1 of 9).
S35M/D54M/D106R: nd, nd, nd (controls 1 of 9).
Y52T/R100P/T104D: nd, nd, 4.54 (controls 1 of 9).
S63Q/A101P/T104Q: 1.02, 0.99, 1.26 (mean 1.09; controls 2 of 9).
T28N/V50E/G99S: nd, nd, nd (controls 0 of 9).
N30L/S35Q/S53Y: 5.65, nd, 5.78 (mean 5.72; controls 2 of 9).
G55L/G103A/S107E: nd, nd, 5.33 (controls 1 of 9).
G26C/Y60I/D106P: nd, nd, nd (controls 4 of 9).
V50P/S63P/G103A: nd, nd, nd (controls 1 of 9).
S35D/T58R/Y60W: nd, nd, nd (controls 0 of 9).
V50A/I51P/S63N: nd, nd, nd (controls 0 of 9).
D54Y/R56Y/F59T: nd, nd, nd (controls 1 of 9).
D54S/A101D/D106P: 3.87, nd, nd (controls 3 of 9).
T28G/V64P: 1.95, 2.11, 2.24 (mean 2.10; controls 2 of 9).
Y52L/F105D/D106S: nd, 3.25, nd (controls 5 of 9).
N30S/G99H/T104N: 2.93, nd, nd (controls 1 of 9).
T28P/T58D/T104M: nd, nd, nd (controls 1 of 9).
F27G/G61E/V64M: nd, nd, nd (controls 0 of 9).
S35K/Y52P/R57G: nd, nd, 2.86 (controls 0 of 9).
G26S/S31P/G61Q: nd, 3.75, nd (controls 2 of 9).
G26P/T28K/K65T: 4.16, nd, nd (controls 1 of 9).
F27W/R57L/G99W: nd, nd, nd (controls 0 of 9).
G33D/Y60M/G61H: nd, nd, nd (controls 0 of 9).

The first 5 entries again:

| changes | log10 Kd, replicates | mean log10 Kd (nM) | control signals |
|---|---|---|---|
| T28C/L29I/S53F | nd, nd, nd | nd | 0 of 9 |
| F27A/F105C/S107L | nd, nd, nd | nd | 0 of 9 |
| F27R/D54C/S107K | nd, nd, nd | nd | 0 of 9 |
| T58N/D62I/V64Q | nd, nd, nd | nd | 0 of 9 |
| I34A/I51R/G61S | nd, nd, nd | nd | 0 of 9 |

Three control strains display no target. For library AAYL49, 15% of the pairings with them gave a signal, with a median of 4.06 and one signal in twenty below 2.83, so weak values seen in few replicates may be background. For each scFv, signals with the empty controls are counted beside the result. For reference, the parent read 0.65 as the reference entry and 4.11 (one replicate of three) as a member of this library.